36 molecules from US11186582B2, “Substituted [1,2,4]triazolo[1,5-a]pyrimidin-7-yl compounds as PDE2 inhibitors” (DART NEUROSCIENCE (CAYMAN) LTD., priority 2014, dated 2021) can be followed below.

Protein sequences, listed by entry. Tags and fused reporters are not part of them. Residues count along the entry.
UniProt O00408, 2-941: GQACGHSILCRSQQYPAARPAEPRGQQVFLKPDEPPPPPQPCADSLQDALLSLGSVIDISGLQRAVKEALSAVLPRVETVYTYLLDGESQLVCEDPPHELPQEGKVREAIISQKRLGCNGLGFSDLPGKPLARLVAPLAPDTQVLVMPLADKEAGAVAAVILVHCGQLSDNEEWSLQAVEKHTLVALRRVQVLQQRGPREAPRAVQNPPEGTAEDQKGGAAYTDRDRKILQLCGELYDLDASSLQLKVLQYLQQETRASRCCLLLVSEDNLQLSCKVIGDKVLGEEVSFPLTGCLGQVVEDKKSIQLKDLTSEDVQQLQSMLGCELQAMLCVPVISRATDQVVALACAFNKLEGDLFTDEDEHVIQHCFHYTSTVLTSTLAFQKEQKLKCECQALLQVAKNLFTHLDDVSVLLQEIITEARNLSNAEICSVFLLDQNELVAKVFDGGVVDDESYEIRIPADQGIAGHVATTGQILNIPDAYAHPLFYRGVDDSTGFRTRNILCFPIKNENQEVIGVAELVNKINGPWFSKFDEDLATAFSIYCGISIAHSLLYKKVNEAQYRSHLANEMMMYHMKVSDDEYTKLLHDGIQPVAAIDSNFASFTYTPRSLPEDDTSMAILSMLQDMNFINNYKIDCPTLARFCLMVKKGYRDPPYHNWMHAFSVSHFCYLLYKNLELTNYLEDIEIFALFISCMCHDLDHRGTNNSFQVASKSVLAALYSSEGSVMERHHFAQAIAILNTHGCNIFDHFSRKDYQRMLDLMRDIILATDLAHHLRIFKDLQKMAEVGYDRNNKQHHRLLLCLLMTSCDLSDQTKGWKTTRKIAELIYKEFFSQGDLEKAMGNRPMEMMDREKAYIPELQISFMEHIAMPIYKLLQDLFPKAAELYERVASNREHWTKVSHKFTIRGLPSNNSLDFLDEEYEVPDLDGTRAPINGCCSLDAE

A value given as a limit tells only on which side of the number the result lay.

The first assay has as its target FLAG-tagged PDE2A1 (amino acids 2-941) (Homo sapiens (Human), UniProt O00408). The assay can be described thus: IMAP TR-FRET PDE2A phosphodiesterase enzymatic assay.
Details: not given
(In general: Time-resolved FRET reads energy transfer from a long-lived donor to a nearby acceptor.)
Usually IC50 stands for the midpoint of a concentration-inhibition curve. Higher therefore signals lower potency. `Cc1cc(C2CN(C(=O)c3cccc(C(C)C)c3)CC(F)(F)C2)n2ncnc2n1` (stereo not drawn) [Example 531, 3,3-Difluoro-5-{5-methyl-[1,2,4]triazolo[1,5-a]pyrimidin-7-yl}-1-[3-(propan-2-yl)benzoyl]piperidine] displayed an IC50 of 100 to 1000 nM.
Molecule `Cc1cc(C2CN(C(=O)c3cc4ccccc4n3C)CCO2)n2ncnc2n1` (stereo not drawn) [Example 533, 1-Methyl-2-(2-{5-methyl-[1,2,4]triazolo[1,5-a]pyrimidin-7-yl}morpholine-4-carbonyl)-1H-indole] returned an IC50 of 100 to 1000 nM.
Same read-out and setting: then `Cc1cc(C2CN(C(=O)c3cc(F)cc(Cl)c3)CCO2)n2ncnc2n1` (stereo not drawn) [Example 536, 4-(3-Chloro-5-fluorobenzoyl)-2-{5-methyl-[1,2,4]triazolo[1,5-a]pyrimidin-7-yl}morpholine], with 100 to 1000 nM; and `COc1cc(C)ccc1C(=O)N1CCOC(c2cc(C)nc3ncnn23)C1` (stereo not drawn) [Example 537, 4-(2-Methoxy-4-methylbenzoyl)-2-{5-methyl-[1,2,4]triazolo[1,5-a]pyrimidin-7-yl}morpholine], with 1000 to 10000 nM.
Regarding `Cc1cc(C2CN(C(=O)c3ccc4nccn4c3)CCO2)n2ncnc2n1` (stereo not drawn) [Example 538, 4-{Imidazo[1,2-a]pyridine-6-carbonyl}-2-{5-methyl-[1,2,4]triazolo[1,5-a]pyrimidin-7-yl}morpholine], the IC50 is 100 to 1000 nM.
`Cc1cc(C2CN(C(=O)c3cc4ccccc4o3)CCO2)n2ncnc2n1` (stereo not drawn) [Example 539, 4-(1-Benzofuran-2-carbonyl)-2-{5-methyl-[1,2,4]triazolo[1,5-a]pyrimidin-7-yl}morpholine]: the half-maximal inhibitory concentration (IC50) is 100 to 1000 nM.
`Cc1cc(C2CN(C(=O)c3cnc4ccccc4n3)CCO2)n2ncnc2n1` (stereo not drawn) [Example 540, 2-(2-{5-Methyl-[1,2,4]triazolo[1,5-a]pyrimidin-7-yl}morpholine-4-carbonyl)quinoxaline] displayed an IC50 of 100 to 1000 nM.
Same read-out and setting: then `Cc1cc(C2CN(C(=O)c3csc4ccccc34)CCO2)n2ncnc2n1` (stereo not drawn) [Example 541, 4-(1-Benzothiophene-3-carbonyl)-2-{5-methyl-[1,2,4]triazolo[1,5-a]pyrimidin-7-yl}morpholine], with 100 to 1000 nM; and `COc1ccc(C)cc1C(=O)N1CCOC(c2cc(C)nc3ncnn23)C1` (stereo not drawn) [Example 542, 4-(2-Methoxy-5-methylbenzoyl)-2-{5-methyl-[1,2,4]triazolo[1,5-a]pyrimidin-7-yl}morpholine], with 100 to 1000 nM.
In turn, `Cc1cc(C2CN(C(=O)c3ccc(C(F)F)cc3)CCO2)n2ncnc2n1` (stereo not drawn) [Example 543, 4-[4-(Difluoromethyl)benzoyl]-2-{5-methyl-[1,2,4]triazolo[1,5-a]pyrimidin-7-yl}morpholine] had an IC50 of more than 10000 nM.
With `COc1ccc(C(=O)N2CCOC(c3cc(C)nc4ncnn34)C2)cc1OC` (stereo not drawn) [Example 544, 4-(3,4-Dimethoxybenzoyl)-2-{5-methyl-[1,2,4]triazolo[1,5-a]pyrimidin-7-yl}morpholine], the IC50 fell in the range of 100 to 1000 nM.
`Cc1cc(C2CN(C(=O)c3cc(Cl)ccc3F)CCO2)n2ncnc2n1` (stereo not drawn) [Example 545, 4-(5-Chloro-2-fluorobenzoyl)-2-{5-methyl-[1,2,4]triazolo[1,5-a]pyrimidin-7-yl}morpholine] showed an IC50 of 1000 to 10000 nM.
In turn, `Cc1cc(C2CN(C(=O)c3ccc(F)c(C)c3)CCO2)n2ncnc2n1` (stereo not drawn) [Example 546, 4-(4-Fluoro-3-methylbenzoyl)-2-{5-methyl-[1,2,4]triazolo[1,5-a]pyrimidin-7-yl}morpholine] registered an IC50 of 100 to 1000 nM.
Still for that read-out and setting: then `COc1cccc(C(=O)N2CCOC(c3cc(C)nc4ncnn34)C2)c1` (stereo not drawn) [Example 548, 4-(3-Methoxybenzoyl)-2-{5-methyl-[1,2,4]triazolo[1,5-a]pyrimidin-7-yl}morpholine], with 1000 to 10000 nM; and `Cc1cc(C2CN(C(=O)c3ccc4c(c3)OCO4)CCO2)n2ncnc2n1` (stereo not drawn) [Example 549, 4-(2H-1,3-Benzodioxole-5-carbonyl)-2-{5-methyl-[1,2,4]triazolo[1,5-a]pyrimidin-7-yl}morpholine], with 100 to 1000 nM.
Same read-out and setting: then `COc1cc(C(=O)N2CCOC(c3cc(C)nc4ncnn34)C2)ccn1` (stereo not drawn) [Example 550, 4-(2-Methoxypyridine-4-carbonyl)-2-{5-methyl-[1,2,4]triazolo[1,5-a]pyrimidin-7-yl}morpholine], with 1000 to 10000 nM; and `Cc1cc(C2CN(C(=O)c3ccc4c(c3)OCCO4)CCO2)n2ncnc2n1` (stereo not drawn) [Example 551, 4-(2,3-Dihydro-1,4-benzodioxine-6-carbonyl)-2-{5-methyl-[1,2,4]triazolo[1,5-a]pyrimidin-7-yl}morpholine], with 100 to 1000 nM; and `Cc1cc(C2CN(C(=O)c3ccc(C(C)C)cc3)CCO2)n2ncnc2n1` (stereo not drawn) [Example 553, 2-{5-Methyl-[1,2,4]triazolo[1,5-a]pyrimidin-7-yl}-4-[4-(propan-2-yl)benzoyl]morpholine], with 1000 to 10000 nM.
On the same count and under the same terms, to `Cc1ccc(F)c(C(=O)N2CCOC(c3cc(C)nc4ncnn34)C2)c1` (stereo not drawn) [Example 554, 4-(2-Fluoro-5-methylbenzoyl)-2-{5-methyl-[1,2,4]triazolo[1,5-a]pyrimidin-7-yl}morpholine] belongs 1000 to 10000 nM; to `COc1cc(F)cc(C(=O)N2CCOC(c3cc(C)nc4ncnn34)C2)c1` (stereo not drawn) [Example 555, 4-(3-Fluoro-5-methoxybenzoyl)-2-{5-methyl-[1,2,4]triazolo[1,5-a]pyrimidin-7-yl}morpholine], 1000 to 10000 nM.
On to `COc1c(C(=O)N2CCOC(c3cc(C)nc4ncnn34)C2)ccc2ccccc12` (stereo not drawn) [Example 556, 4-(1-Methoxynaphthalene-2-carbonyl)-2-{5-methyl-[1,2,4]triazolo[1,5-a]pyrimidin-7-yl}morpholine], for which the IC50 lay within 100 to 1000 nM.

Still in this assay, the particulars now being: IMAP TR-FRET, 200 nM FAM-cAMP substrate, 11-point half-log dose-response.
On to `Cc1cc(C2CN(C(=O)c3ccc(C(C)C)cc3)CC(F)(F)C2)n2ncnc2n1` (stereo not drawn) [Example 521, 3,3-Difluoro-5-{5-methyl-[1,2,4]triazolo[1,5-a]pyrimidin-7-yl}-1-[4-(propan-2-yl)benzoyl]piperidine], for which the “PDE2 (pIC50)” value is more than 7.
Take `Cc1ccc(F)c(C(=O)N2CC(c3cc(C)nc4ncnn34)CC(F)(F)C2)c1` (stereo not drawn) [Example 522, 3,3-Difluoro-1-(2-fluoro-5-methylbenzoyl)-5-{5-methyl-[1,2,4]triazolo[1,5-a]pyrimidin-7-yl}piperidine]: the “PDE2 (pIC50)” value was more than 7.
Same read-out and setting: then `COc1cc(F)cc(C(=O)N2CC(c3cc(C)nc4ncnn34)CC(F)(F)C2)c1` (stereo not drawn) [Example 523, 3,3-Difluoro-1-(3-fluoro-5-methoxybenzoyl)-5-{5-methyl-[1,2,4]triazolo[1,5-a]pyrimidin-7-yl}piperidine], with more than 7; and `Cc1cc(C2CN(C(=O)c3ccc4c(c3)CCC4)CC(F)(F)C2)n2ncnc2n1` (stereo not drawn) [Example 524, 1-(2,3-Dihydro-1H-indene-5-carbonyl)-3,3-difluoro-5-{5-methyl-[1,2,4]triazolo[1,5-a]pyrimidin-7-yl}piperidine], with more than 7.
As to `COc1c(C(=O)N2CC(c3cc(C)nc4ncnn34)CC(F)(F)C2)ccc2ccccc12` (stereo not drawn) [Example 525, 3,3-Difluoro-1-(1-methoxynaphthalene-2-carbonyl)-5-{5-methyl-[1,2,4]triazolo[1,5-a]pyrimidin-7-yl}piperidine], the “PDE2 (pIC50)” value is reported as more than 7.
As for `COc1ccc2cc(C(=O)N3CC(c4cc(C)nc5ncnn45)CC(F)(F)C3)ccc2c1` (stereo not drawn) [Example 526, 3,3-Difluoro-1-(6-methoxynaphthalene-2-carbonyl)-5-{5-methyl-[1,2,4]triazolo[1,5-a]pyrimidin-7-yl}piperidine], the “PDE2 (pIC50)” value is more than 7.
Same read-out and setting: then `Cc1cc(C2CN(C(=O)c3cc(-c4ccccc4)nn3C)CC(F)(F)C2)n2ncnc2n1` (stereo not drawn) [Example 527, 3,3-Difluoro-1-(1-methyl-3-phenyl-1H-pyrazole-5-carbonyl)-5-{5-methyl-[1,2,4]triazolo[1,5-a]pyrimidin-7-yl}piperidine], with more than 7; and `Cc1cc(C2CN(C(=O)c3ccc4cc(F)ccc4c3)CC(F)(F)C2)n2ncnc2n1` (stereo not drawn) [Example 528, 3,3-Difluoro-1-(6-fluoronaphthalene-2-carbonylyl)-5-{5-methyl-[1,2,4]triazolo[1,5-a]pyrimidin-7-yl}piperidine], with more than 7; and `Cc1cc(C2CN(C(=O)c3nc4ccccc4s3)CC(F)(F)C2)n2ncnc2n1` (stereo not drawn) [Example 529, 2-(3,3-Difluoro-5-{5-methyl-[1,2,4]triazolo[1,5-a]pyrimidin-7-yl}piperidine-1-carbonyl)-1,3-benzothiazole], with more than 7.
Same read-out and setting: then `Cc1cc(C2CN(C(=O)c3ccc4c(c3)OC(F)(F)O4)CC(F)(F)C2)n2ncnc2n1` (stereo not drawn) [Example 530, 1-(2,2-Difluoro-2H-1,3-benzodioxole-5-carbonyl)-3,3-difluoro-5-{5-methyl-[1,2,4]triazolo[1,5-a]pyrimidin-7-yl}piperidine], with more than 7; and `Cc1cc(C2CN(C(=O)c3cnn(-c4ccccc4)c3)CC(F)(F)C2)n2ncnc2n1` (stereo not drawn) [Example 532, 3,3-Difluoro-5-{5-methyl-[1,2,4]triazolo[1,5-a]pyrimidin-7-yl}-1-(1-phenyl-1H-pyrazole-4-carbonyl)piperidine], with more than 7.
With `Cc1cc(C2CN(C(=O)c3ccc4occc4c3)CCO2)n2ncnc2n1` (stereo not drawn) [Example 534, 4-(1-Benzofuran-5-carbonyl)-2-{5-methyl-[1,2,4]triazolo[1,5-a]pyrimidin-7-yl}morpholine], the “PDE2 (pIC50)” value is on record as more than 7.
On to `Cc1cc(C2CN(C(=O)c3ccc4sccc4c3)CCO2)n2ncnc2n1` (stereo not drawn) [Example 535, 4-(1-Benzothiophene-5-carbonyl)-2-{5-methyl-[1,2,4]triazolo[1,5-a]pyrimidin-7-yl}morpholine], for which the “PDE2 (pIC50)” value is on record as more than 7.
Turning to `COc1ccc(C(=O)N2CCOC(c3cc(C)nc4ncnn34)C2)cc1C` (stereo not drawn) [Example 547, 4-(4-Methoxy-3-methylbenzoyl)-2-{5-methyl-[1,2,4]triazolo[1,5-a]pyrimidin-7-yl}morpholine], the “PDE2 (pIC50)” value is on record as more than 7.
On the same count and under the same terms, then `COc1cc2ccccc2cc1C(=O)N1CCOC(c2cc(C)nc3ncnn23)C1` (stereo not drawn) [Example 552, 4-(3-Methoxynaphthalene-2-carbonyl)-2-{5-methyl-[1,2,4]triazolo[1,5-a]pyrimidin-7-yl}morpholine], with more than 7.
